Test system: Nitric oxide synthase, inducible (Homo sapiens); call rule not given here
Assay: Inhibition of recombinant human iNOS expressed in baculovirus-infected Sf9 cells assessed as conversion of [3H]-larginine to [3H]-L-citrulline preincubated for 15 mins measured after 45 mins by liquid scintillation counting

## Cl.Cl.N=C(Nc1ccc2c(c1)CCN2CCNCCO)c1cccs1
  IC50: Not Active
